Measured values as given in US20240158639A1, “PROCESS FOR PREPARING INDOCYANINE GREEN” (ICROM Srl, priority 2021, published 2024).

Assay: Solubility in water, checked by filtration on a 0.45 μm syringe filter
Conditions: composition with NaI content ≤2.5%

## 1H-benz[e]indole, 2-[7-[1,3-dihydro-1,1-dimethyl-3-(4-sulfobutyl)-2H-benz[e]indol-2-ylidene]-1,3,5-heptatrienyl]-1,1-dimethyl-3-(4-sulfobutyl) hydroxide, inner salt, sodium salt [compound of formula (I)]
  soluble in water: up to 5 mg/ml
